Reference: patent US10456414B2, “Methods for treating HCV” (priority 2011, dated 2019)

What was measured:
[1] = test system: 1b Huh-luc replicon cells; assay: Antiviral combination studies with Compound 5, MacSynergy II; assay type: cell-based, HCV; settings: in combination with Compound 5
[2] = test system: HCV genotype 1b replicon cells (Huh-luc); assay: Antiviral activity assay in HCV Huh-luc replicon cells (Biological Example 5); assay type: cell-based; settings: Hepatitis C virus, 72 h, 3 days, arithmetic mean ± standard deviation
Experimental: Serial dilutions were added to the cells at a 1:200 dilution to achieve a final concentration of 0.5% DMSO in a total volume of 200 μL.
EC50 values were calculated by nonlinear regression analysis of replicate data sets using XLfit 4 software (IDBS, Emeryville, Calif.).

genotype 1b replicon RNA = assay: Replicon RNA suppression, 6 day assay, QRT-PCR; settings: Compound 6 at 4 pM, Compound 4 at 1000 nM, Compound 1 at 10 nM, Compound 3 at 26.25 nM; 6 days; relative to DMSO control (Table XV)
[3] = test system: HCV genotype 1b replicon cells (Huh-luc); assay: EC50 determination in Huh-luc replicon cells (Biological Example 2); assay type: cell-based; settings: Hepatitis C virus, 72 h, 3 days, average ± standard deviation
Experimental: (§1) Compounds were serially diluted 1:3 in 100% DMSO (Sigma). These serial dilutions were added to the cells at a 1:200 dilution to achieve a final concentration of 0.5% DMSO in a total volume of 200 μL. […] EC50 values were calculated from the resulting equations as described previously.

[4] = test system: HCV genotype 1b replicon cells (Huh-luc); assay: EC50 determination in Huh-luc replicon cells (Biological Example 1); assay type: cell-based; settings: Hepatitis C virus, 72 h, 3 days, average ± standard deviation
Experimental: as §1, with “Compounds 1 and 2” for “Compounds”, “previously (Delaney, W. E., et al., Antimicrobial Agents Chemotherapy, 45(6):1705-1713 (2001)).” for “previously.”

SMILES | Interaction [1] | EC50 [2] [nM] | Replicon RNA log drop (genotype 1b replicon RNA) [log] | EC50 [3] [nM] | EC50 [4] [nM]
COC(=O)N[C@H](C(=O)N1CC2(CC2)C[C@H]1c1ncc(-c2ccc3c(c2)C(F)(F)c2cc(-c4ccc5nc([C@@H]6[C@H]7CC[C@H](C7)N6C(=O)[C@@H](NC(=O)OC)C(C)C)[nH]c5c4)ccc2-3)[nH]1)C(C)C [Compound 6, (1-{3-[6-(9,9-Difluoro-7-{2-[5-(2-methoxycarbonylamino-3-methyl-butyryl)-5-aza-spiro[2.4]hept-6-yl]-3H-imidazol-4-yl}-9H-fluoren-2-yl)-1H-benzoimidazol-2-yl]-2-aza-bicyclo[2.2.1]heptane-2-carbonyl}-2-methyl-propyl)-carbamic acid methyl ester] | Minor synergy (Minor synergy if volumes are >25 and <50 nM^2) | 0.0018 ± 0.0007 |  |  | 
CC(C)OC(=O)[C@H](C)N[P@](=O)(OC[C@H]1O[C@@](C#N)(c2ccc3c(N)ncnn23)[C@](C)(O)[C@@H]1OC(=O)C(C)C)Oc1ccccc1 [Compound 4] | Minor synergy (Minor synergy if volumes are >25 and <50 nM^2) |  | −1.2 |  | 
CC[C@@H]1C[C@]1(NC(=O)[C@@H]1C[C@@H](Oc2cc(-c3csc(NC(C)C)n3)nc3c(Cl)c(OCCN4CCOCC4)ccc23)CN1C(=O)[C@@H](NC(=O)O[C@@H]1C[C@@H]2C[C@@H]2C1)C(C)(C)C)C(=O)O [Compound 3] |  | 3 ± 1.2 |  | 2.3 ± 2.6 | 
Fc1ccccc1-c1nc2ccn(Cc3ccc(-c4ccc(C(F)(F)F)cc4C(F)(F)F)nn3)cc-2n1 [Compound 1, 5-((6-(2,4-bis(trifluoromethyl)phenyl)pyridazin-3-yl)methyl)-2-(2-fluorophenyl)-5H-imidazo[4,5-c]pyridine] | Moderate synergy (Moderate synergy if volumes are >50 and ≤100 nM^2) | 0.96 ± 0.39 |  | 0.4 ± 0.14 | 3 ± 2
COc1ccc2c(O[C@@H]3C[C@H]4C(=O)N[C@]5(P(=O)(O)Cc6c(F)cccc6F)C[C@H]5CCCCCCC[C@H](NC(=O)OC5CCCC5)C(=O)N4C3)cc(-c3csc(NC(C)C)n3)nc2c1Cl [Compound 2, (2R,6S,13aR,14aS,16aS)-2-(8-chloro-2-(2-(isopropylamino)thiazol-4-yl)-7-methoxyquinolin-4-yloxy)-6-(cyclopentyloxycarbonylamino)-5,16-dioxooctadecahydrocyclopropa[e]pyrrolo[1,2-a][1,4]diazacyclopentadecin-14a-yl(2,6-diflurobenzyl)phosphinic acid] |  | 5 |  |  | 11 ± 3
